Data taken from article PMC7611940, “A Conformation Selective Mode of Inhibiting SRC Improves Drug Efficacy and Tolerability” (Cancer Research, 2021).

Protein sequences, listed by entry. Tags and fused reporters are not part of them. Lines headed by an entry give the natural chain unless they say otherwise; changes in a name come on top.
UniProt O43353, whole entry: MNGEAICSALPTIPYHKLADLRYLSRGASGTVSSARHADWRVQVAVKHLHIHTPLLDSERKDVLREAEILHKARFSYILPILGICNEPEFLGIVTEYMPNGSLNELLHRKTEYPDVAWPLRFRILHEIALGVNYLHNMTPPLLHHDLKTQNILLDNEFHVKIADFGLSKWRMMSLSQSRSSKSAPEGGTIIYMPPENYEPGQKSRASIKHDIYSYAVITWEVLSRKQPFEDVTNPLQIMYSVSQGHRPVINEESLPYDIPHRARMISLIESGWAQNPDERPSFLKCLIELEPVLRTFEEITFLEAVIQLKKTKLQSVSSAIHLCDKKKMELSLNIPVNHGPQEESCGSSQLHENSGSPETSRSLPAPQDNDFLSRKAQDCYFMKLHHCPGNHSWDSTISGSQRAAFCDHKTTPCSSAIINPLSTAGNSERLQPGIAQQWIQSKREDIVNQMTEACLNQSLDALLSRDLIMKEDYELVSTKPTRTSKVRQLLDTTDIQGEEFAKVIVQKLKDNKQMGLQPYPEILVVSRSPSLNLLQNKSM
UniProt Q86Z02: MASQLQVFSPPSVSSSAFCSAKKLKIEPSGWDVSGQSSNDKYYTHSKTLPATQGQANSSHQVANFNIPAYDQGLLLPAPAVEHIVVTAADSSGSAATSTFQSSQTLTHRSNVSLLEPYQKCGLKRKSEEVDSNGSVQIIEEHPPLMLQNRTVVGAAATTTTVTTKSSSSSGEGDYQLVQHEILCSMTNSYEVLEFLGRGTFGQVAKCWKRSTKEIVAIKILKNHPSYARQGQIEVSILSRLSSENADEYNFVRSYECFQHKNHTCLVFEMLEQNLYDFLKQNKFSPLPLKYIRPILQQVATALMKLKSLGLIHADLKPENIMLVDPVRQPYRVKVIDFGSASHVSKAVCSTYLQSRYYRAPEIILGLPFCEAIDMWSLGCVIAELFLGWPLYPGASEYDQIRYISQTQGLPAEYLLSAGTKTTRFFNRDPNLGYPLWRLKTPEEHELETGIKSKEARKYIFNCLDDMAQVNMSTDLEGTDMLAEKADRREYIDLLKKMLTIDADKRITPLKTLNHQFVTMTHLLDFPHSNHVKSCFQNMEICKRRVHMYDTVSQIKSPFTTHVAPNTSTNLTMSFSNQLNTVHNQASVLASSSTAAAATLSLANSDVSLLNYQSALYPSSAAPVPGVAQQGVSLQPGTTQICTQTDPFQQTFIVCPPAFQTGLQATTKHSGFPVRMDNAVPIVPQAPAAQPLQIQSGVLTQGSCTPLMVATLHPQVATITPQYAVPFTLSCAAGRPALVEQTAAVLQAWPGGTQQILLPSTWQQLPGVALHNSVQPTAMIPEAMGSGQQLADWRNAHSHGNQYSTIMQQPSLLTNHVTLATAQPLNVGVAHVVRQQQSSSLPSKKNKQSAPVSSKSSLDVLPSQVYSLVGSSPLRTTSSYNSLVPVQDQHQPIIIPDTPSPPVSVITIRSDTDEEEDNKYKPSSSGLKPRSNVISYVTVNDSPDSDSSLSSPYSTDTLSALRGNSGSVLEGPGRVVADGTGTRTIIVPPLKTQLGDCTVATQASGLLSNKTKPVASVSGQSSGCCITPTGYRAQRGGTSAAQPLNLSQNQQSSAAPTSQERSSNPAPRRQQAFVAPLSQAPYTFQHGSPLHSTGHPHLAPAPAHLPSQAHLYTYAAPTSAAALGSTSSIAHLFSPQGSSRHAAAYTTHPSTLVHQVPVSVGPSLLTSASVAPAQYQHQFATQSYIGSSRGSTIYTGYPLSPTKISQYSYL
UniProt P46734: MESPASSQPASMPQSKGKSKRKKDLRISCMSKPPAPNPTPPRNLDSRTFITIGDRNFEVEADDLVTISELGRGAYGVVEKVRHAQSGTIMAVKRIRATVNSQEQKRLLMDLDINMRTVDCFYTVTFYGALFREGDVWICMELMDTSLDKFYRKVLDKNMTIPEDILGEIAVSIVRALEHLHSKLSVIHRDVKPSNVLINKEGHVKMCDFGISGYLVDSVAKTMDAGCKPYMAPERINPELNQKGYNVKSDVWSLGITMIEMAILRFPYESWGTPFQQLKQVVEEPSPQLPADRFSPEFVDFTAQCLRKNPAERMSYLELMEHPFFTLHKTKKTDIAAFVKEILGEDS
UniProt O15146: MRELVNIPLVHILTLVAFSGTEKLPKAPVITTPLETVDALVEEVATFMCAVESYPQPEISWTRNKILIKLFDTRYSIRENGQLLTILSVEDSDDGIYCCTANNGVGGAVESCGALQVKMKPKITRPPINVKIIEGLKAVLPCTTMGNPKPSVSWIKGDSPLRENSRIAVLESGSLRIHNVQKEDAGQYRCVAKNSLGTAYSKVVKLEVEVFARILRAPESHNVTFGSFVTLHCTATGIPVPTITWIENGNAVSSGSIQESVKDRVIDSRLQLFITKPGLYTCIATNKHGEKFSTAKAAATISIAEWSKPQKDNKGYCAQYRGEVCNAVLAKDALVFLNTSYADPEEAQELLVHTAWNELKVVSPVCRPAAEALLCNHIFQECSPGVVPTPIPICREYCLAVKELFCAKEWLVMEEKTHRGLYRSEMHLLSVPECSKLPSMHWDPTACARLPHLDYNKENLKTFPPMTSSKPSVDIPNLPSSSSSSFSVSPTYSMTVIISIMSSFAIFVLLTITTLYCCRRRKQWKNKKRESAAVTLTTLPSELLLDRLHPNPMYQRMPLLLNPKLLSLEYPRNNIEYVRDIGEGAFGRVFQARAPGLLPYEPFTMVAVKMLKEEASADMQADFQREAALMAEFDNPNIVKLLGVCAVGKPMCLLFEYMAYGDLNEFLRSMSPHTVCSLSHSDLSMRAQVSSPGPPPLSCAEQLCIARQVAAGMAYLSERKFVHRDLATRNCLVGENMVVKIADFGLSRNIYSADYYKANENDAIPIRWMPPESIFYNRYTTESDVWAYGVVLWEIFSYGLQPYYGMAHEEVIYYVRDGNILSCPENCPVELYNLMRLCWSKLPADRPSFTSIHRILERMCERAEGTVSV
UniProt Q9BZL6: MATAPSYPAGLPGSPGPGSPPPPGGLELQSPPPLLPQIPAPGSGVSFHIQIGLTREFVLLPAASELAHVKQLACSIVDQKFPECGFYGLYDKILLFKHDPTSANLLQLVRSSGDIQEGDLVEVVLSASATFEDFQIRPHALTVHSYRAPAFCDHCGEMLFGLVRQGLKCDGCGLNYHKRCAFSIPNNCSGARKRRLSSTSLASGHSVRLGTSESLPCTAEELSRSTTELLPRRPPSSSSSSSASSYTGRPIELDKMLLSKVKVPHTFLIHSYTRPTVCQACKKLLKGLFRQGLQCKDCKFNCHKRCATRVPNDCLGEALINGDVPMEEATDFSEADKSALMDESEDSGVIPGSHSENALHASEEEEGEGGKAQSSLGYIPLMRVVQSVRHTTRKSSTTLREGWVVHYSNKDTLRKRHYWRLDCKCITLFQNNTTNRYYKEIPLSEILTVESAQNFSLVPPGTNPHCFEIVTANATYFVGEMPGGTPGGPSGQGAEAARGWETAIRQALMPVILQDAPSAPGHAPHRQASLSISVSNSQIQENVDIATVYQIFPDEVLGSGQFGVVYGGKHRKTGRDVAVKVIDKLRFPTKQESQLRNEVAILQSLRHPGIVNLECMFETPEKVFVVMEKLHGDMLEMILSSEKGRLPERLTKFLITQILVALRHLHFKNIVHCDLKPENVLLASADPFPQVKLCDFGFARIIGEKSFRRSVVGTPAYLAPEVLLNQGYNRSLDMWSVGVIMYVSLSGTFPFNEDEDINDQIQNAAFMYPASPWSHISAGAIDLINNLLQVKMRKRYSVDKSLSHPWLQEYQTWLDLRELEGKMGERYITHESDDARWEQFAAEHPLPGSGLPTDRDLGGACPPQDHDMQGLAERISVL
UniProt P42685: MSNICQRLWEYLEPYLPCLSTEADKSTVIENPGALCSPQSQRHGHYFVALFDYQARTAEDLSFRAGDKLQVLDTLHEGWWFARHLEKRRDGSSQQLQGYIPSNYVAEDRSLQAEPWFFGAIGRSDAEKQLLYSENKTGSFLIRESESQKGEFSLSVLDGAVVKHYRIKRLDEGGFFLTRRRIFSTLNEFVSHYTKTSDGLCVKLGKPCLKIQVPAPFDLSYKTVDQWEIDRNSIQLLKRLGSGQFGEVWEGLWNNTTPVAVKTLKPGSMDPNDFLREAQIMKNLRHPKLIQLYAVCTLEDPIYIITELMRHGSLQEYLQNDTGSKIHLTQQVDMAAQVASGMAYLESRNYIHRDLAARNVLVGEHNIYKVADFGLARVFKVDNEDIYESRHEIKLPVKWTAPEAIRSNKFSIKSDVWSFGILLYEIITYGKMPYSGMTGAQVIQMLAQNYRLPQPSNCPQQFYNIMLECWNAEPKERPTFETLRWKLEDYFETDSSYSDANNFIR
UniProt Q9H093: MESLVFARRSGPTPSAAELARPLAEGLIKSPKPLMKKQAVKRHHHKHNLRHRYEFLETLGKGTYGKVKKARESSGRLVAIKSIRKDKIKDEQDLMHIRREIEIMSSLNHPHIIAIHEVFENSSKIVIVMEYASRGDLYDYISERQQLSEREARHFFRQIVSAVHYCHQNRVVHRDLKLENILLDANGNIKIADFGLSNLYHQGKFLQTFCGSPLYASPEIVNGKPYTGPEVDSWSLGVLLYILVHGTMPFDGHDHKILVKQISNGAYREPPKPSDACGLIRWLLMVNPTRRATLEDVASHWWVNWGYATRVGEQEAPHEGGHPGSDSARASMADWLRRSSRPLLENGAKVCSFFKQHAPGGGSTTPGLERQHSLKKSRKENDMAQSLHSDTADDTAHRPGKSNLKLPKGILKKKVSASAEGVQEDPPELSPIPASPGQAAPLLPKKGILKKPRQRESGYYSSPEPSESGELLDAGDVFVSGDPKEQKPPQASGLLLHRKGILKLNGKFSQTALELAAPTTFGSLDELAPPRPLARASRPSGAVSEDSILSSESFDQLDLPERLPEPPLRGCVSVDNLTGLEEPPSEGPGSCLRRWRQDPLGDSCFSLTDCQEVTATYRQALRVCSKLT
UniProt Q15831: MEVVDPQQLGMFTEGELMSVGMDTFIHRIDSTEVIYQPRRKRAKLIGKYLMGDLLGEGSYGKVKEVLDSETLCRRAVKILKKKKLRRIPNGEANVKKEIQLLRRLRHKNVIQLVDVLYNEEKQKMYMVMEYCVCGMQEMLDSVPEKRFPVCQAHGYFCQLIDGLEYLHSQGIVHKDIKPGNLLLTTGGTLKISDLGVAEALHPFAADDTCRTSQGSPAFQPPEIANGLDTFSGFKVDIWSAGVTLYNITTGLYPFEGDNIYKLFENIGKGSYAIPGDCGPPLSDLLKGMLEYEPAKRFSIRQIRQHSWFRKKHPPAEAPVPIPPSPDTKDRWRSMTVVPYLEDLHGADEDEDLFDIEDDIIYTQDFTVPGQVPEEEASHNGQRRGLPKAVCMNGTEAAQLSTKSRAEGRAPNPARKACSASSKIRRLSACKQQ
UniProt P51956: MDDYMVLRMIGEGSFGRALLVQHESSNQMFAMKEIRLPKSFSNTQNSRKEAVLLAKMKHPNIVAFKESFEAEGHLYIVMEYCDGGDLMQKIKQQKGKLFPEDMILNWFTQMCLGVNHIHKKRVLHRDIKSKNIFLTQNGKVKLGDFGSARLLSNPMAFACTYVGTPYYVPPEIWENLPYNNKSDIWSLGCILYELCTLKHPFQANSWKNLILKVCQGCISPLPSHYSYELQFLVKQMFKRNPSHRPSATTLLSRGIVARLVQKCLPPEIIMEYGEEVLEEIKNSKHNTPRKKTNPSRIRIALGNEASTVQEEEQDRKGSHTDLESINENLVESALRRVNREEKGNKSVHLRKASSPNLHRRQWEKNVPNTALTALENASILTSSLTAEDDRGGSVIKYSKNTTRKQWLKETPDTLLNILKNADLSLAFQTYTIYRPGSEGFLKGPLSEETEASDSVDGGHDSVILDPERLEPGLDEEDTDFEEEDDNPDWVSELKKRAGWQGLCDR
UniProt P36894: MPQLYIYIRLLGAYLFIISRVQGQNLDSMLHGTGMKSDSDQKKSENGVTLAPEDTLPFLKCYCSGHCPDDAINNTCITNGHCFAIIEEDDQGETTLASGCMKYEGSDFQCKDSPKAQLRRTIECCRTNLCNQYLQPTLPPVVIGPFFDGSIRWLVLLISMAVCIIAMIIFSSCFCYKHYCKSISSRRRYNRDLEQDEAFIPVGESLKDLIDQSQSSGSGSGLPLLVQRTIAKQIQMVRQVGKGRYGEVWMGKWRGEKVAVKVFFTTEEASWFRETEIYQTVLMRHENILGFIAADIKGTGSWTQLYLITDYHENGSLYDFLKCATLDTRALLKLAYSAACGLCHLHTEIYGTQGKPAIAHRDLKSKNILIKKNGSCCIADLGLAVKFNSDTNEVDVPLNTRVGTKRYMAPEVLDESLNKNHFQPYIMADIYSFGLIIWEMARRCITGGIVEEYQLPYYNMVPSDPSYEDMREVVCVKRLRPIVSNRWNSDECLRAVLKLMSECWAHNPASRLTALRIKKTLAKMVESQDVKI

Key:
Assay in all cases: biochemical
Conditions in all cases: read-out: % remaining activity
[1] = molecular target: RIPK2 (Homo sapiens, UniProt O43353)
[2] = molecular target: T1, PKCd (Homo sapiens, UniProt Q05655)
T1 construct: gene PRKCD

[3] = molecular target: HIPK1 (Homo sapiens, UniProt Q86Z02)
[4] = molecular target: BMX (Homo sapiens, UniProt P51813)
[5] = molecular target: T2, MEK3 (Homo sapiens, UniProt P46734)
T2 construct: gene MAP2K3

[6] = molecular target: MUSK (Homo sapiens, UniProt O15146)
[7] = molecular target: T3, OSR1 (Homo sapiens, UniProt O95747)
T3 construct: gene OXSR1

[8] = molecular target: PRKD2 (Homo sapiens, UniProt Q9BZL6)
[9] = molecular target: CDK6/cyclin D1 (Homo sapiens, UniProt Q00534)
[10] = molecular target: ULK3 (Homo sapiens, UniProt Q6PHR2)
[11] = molecular target: DAPK2 (Homo sapiens, UniProt Q9UIK4)
[12] = molecular target: MYLK2 (Homo sapiens, UniProt Q9H1R3)
[13] = molecular target: AXL (Homo sapiens, UniProt P30530)
[14] = molecular target: FRK (Homo sapiens, UniProt P42685)
[15] = molecular target: CDK9/cyclin K (Homo sapiens, UniProt P50750)
[16] = molecular target: RET (Homo sapiens, UniProt P07949)
[17] = molecular target: T4, MNK1 (Homo sapiens, UniProt Q9BUB5)
T4 construct: gene MKNK1

[18] = molecular target: DAPK1 (Homo sapiens, UniProt P53355)
[19] = molecular target: HIPK3 (Homo sapiens, UniProt Q9H422)
[20] = molecular target: T5, SNARK (Homo sapiens, UniProt Q9H093)
T5 construct: gene NUAK2

[21] = molecular target: T6, LKB1 (Homo sapiens, UniProt Q15831)
T6 construct: gene STK11

[22] = molecular target: T7, ALK1 (Homo sapiens, UniProt P37023)
T7 construct: gene ACVRL1

[23] = molecular target: TNIK (Homo sapiens, UniProt Q9UKE5)
[24] = molecular target: T8, PKCiota (Homo sapiens, UniProt P41743)
T8 construct: gene PRKCI

[25] = molecular target: T9, YES (Homo sapiens, UniProt P07947)
T9 construct: gene YES1

[26] = molecular target: STK32B (Homo sapiens, UniProt Q9NY57)
[27] = molecular target: NEK5 (Homo sapiens, UniProt Q6P3R8)
[28] = molecular target: PIM2 (Homo sapiens, UniProt Q9P1W9)
[29] = molecular target: RPS6KA4 (Homo sapiens, UniProt O75676)
[30] = molecular target: T10, IKKa (Homo sapiens, UniProt O15111)
T10 construct: gene CHUK

[31] = molecular target: HIPK2 (Homo sapiens, UniProt Q9H2X6)
[32] = molecular target: PAK1 (Homo sapiens, UniProt Q13153)
[33] = molecular target: CAMKK2 (Homo sapiens, UniProt Q96RR4)
[34] = molecular target: T11, CK1d (Homo sapiens, UniProt P48730)
T11 construct: gene CSNK1D

[35] = molecular target: NEK3 (Homo sapiens, UniProt P51956)
[36] = molecular target: T12, ALK3 (Homo sapiens, UniProt P36894)
T12 construct: gene BMPR1A

**Q.** How did the remaining activity at 1 µM [1] turn out when COc1cc(-c2nn(CCN3CCC(N(C)C)CC3)c3ncnc(N)c23)ccc1NC(=O)OC(C)(C)C [eCF506] was run?
**A.** 76.8%

**Q.** And the remaining activity at 1 µM [2]?
**A.** 97.8%

**Q.** And the remaining activity at 1 µM [3]?
**A.** 100%

**Q.** What about the remaining activity at 1 µM [4] of the same compound?
**A.** 2.8%

**Q.** And the remaining activity at 1 µM [5]?
**A.** 101%

**Q.** And the remaining activity at 1 µM [6]?
**A.** 89%

**Q.** And the remaining activity at 1 µM [7]?
**A.** 103%

**Q.** What about the remaining activity at 1 µM [8] of the same compound?
**A.** 113%

**Q.** What about the remaining activity at 1 µM [9] of the same compound?
**A.** 105%

**Q.** What about the remaining activity at 1 µM [10] of the same compound?
**A.** 97%

**Q.** And the remaining activity at 1 µM [11]?
**A.** 99.5%

**Q.** And the remaining activity at 1 µM [12]?
**A.** 106%

**Q.** What about the remaining activity at 1 µM [13] of the same compound?
**A.** 64.1%

**Q.** And the remaining activity at 1 µM [14]?
**A.** 2.4%

**Q.** And the remaining activity at 1 µM [15]?
**A.** 95.7%

**Q.** And the remaining activity at 1 µM [16]?
**A.** 98.6%

**Q.** What about the remaining activity at 1 µM [17] of the same compound?
**A.** 97.8%

**Q.** What about the remaining activity at 1 µM [18] of the same compound?
**A.** 105%

**Q.** And the remaining activity at 1 µM [19]?
**A.** 95.2%

**Q.** And the remaining activity at 1 µM [20]?
**A.** 105%

**Q.** And the remaining activity at 1 µM [21]?
**A.** 100%

**Q.** And the remaining activity at 1 µM [22]?
**A.** 85.9%

**Q.** What about the remaining activity at 1 µM [23] of the same compound?
**A.** 98.1%

**Q.** And the remaining activity at 1 µM [24]?
**A.** 102%

**Q.** What about the remaining activity at 1 µM [25] of the same compound?
**A.** 1.8%

**Q.** What about the remaining activity at 1 µM [26] of the same compound?
**A.** 119%

**Q.** What about the remaining activity at 1 µM [27] of the same compound?
**A.** 108%

**Q.** And the remaining activity at 1 µM [28]?
**A.** 101%

**Q.** And the remaining activity at 1 µM [29]?
**A.** 99.2%

**Q.** And the remaining activity at 1 µM [30]?
**A.** 87.6%

**Q.** And the remaining activity at 1 µM [31]?
**A.** 95.2%

**Q.** What about the remaining activity at 1 µM [32] of the same compound?
**A.** 100%

**Q.** And the remaining activity at 1 µM [33]?
**A.** 117%

**Q.** What about the remaining activity at 1 µM [34] of the same compound?
**A.** 102%

**Q.** What about the remaining activity at 1 µM [35] of the same compound?
**A.** 98%

**Q.** And the remaining activity at 1 µM [36]?
**A.** 98.2%
